Our source for the oral absorption values is patent US20120004307A1, “ORAL TREATMENT OF DIGITAL ISCHEMIC LESIONS” (priority 2010, published 2012).

The conditions of the data set: oral sustained release formulation. On the procedure:
During a phase I PK trial of oral treprostinil in SSc patients, the goal was to quantify changes in perfusion as assessed by laser Doppler imaging (LDI) and to determine whether improvements in perfusion correlated with drug concentration.
10 SSc patients with recent or active DU participated in the study.
Dosing: Oral treprostinil titrated up to 4 mg twice daily (BID) as tolerated over 6-8 weeks. Pharmokinetics (PK) and laser Doppler imaging (LDI) assessments: performed when subjects achieved the 2 mg and 4 mg (or maximally tolerated dose) doses. […] 8 serial measures of digital perfusion and drug concentration were obtained over 12 hours at each of the 2 study visits.
Repeated measures analyses were performed using random effects model. Dependent variables were perfusion and skin temperature. The predictor of interest was log-transformed drug concentration. Covariates with p-values less than 0.15 were kept in the model. All data was used, across time points, visits, and hands.

`CCCCC[C@H](O)CC[C@@H]1[C@H]2Cc3cccc(OCC(=O)O)c3C[C@H]2C[C@H]1O.OCCNCCO` [treprostinil diethanolamine, Treprostinil diethanolamine]: the oral absorption result is “absorbed to reach therapeutic levels”.
